These substances were tested on PAE cells.

Substance | Cytotoxicity (%)
3-[(2,4- dimethylphenyl)carbamoyl]naphthalen-2- olate; N-(2,4-dimethylphenyl)-3- hydroxynaphthalene-2-carboxamide; nickel(2+) [Compound 37] | 7.924%
[benzylsulfanyl(sulfoniumylidene) methyl]-(1-pyridin-2- ylethylideneamino)azanide; chlorocopper [Compound 65] | 13.75%
azidobenzene; 1H-indene; prop-1-en-2- ylbenzene [Compound 49] | 6.968%

Source: patent US9504729B2, “Antiangiogenic small molecules and methods of use” (The United States of America, as represented by the …, priority 2009, dated 2016)
